Laboratory results taken from ChEMBL document CHEMBL1150266, “Design and synthesis of conformationally constrained glucagon-like peptide-1 derivatives with increased plasma stability and prolonged in vivo activity” (J Med Chem, 2008).

The chains behind the UniProt entries cited, without tags or fusion partners.
UniProt P43220, whole entry: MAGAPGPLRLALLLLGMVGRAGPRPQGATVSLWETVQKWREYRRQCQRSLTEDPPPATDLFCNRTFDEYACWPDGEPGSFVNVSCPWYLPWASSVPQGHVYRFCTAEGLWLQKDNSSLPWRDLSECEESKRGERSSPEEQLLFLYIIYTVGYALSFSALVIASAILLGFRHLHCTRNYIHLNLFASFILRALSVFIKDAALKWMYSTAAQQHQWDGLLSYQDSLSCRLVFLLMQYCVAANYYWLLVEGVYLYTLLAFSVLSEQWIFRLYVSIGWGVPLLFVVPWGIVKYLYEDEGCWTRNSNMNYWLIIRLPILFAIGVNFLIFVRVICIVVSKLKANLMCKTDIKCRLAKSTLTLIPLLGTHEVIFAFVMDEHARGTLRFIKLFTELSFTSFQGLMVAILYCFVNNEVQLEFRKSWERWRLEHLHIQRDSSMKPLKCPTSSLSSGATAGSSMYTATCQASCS

Key:
Plasma = test: Stability in human plasma at 1000 ng/mL at 37 degC; assay type: ADME, cell-free
[1] = biological target: T1, Glucagon-like peptide 1 receptor (Homo sapiens, UniProt P43220); test: Displacement of [125I]GLP1 from human GLP1R expressed in CHOK1 cells; assay type: cell-based, CHO-K1
[2] = biological target: T1, Glucagon-like peptide 1 receptor; test: Agonist activity at human GLP1R expressed in CHO cells assessed as increase in cAMP level by cAMP-response element/luciferase activation assay; assay type: functional, cell-based

In the case of `CC[C@H](C)[C@H](NC(=O)[C@H](Cc1ccccc1)NC(=O)[C@@H]1CCCCNC(=O)CC[C@H](NC(=O)CNC(=O)[C@H](CCC(=O)O)NC(=O)[C@H](CC(C)C)NC(=O)[C@H](Cc2ccc(O)cc2)NC(=O)[C@H](CO)NC(=O)[C@H](CO)NC(=O)[C@@H](NC(=O)[C@H](CC(=O)O)NC(=O)[C@H](CO)NC(=O)[C@@H](NC(=O)[C@H](Cc2ccccc2)NC(=O)[C@@H](NC(=O)CNC(=O)[C@H](CCC(=O)O)NC(=O)CNC(=O)[C@@H](N)Cc2c[nH]cn2)[C@@H](C)O)[C@@H](C)O)C(C)C)C(=O)N[C@@H](C)C(=O)N[C@@H](C)C(=O)N[C@@H](CCCCN)C(=O)N1)C(=O)N[C@@H](C)C(=O)N[C@@H](Cc1c[nH]c2ccccc12)C(=O)N[C@@H](CC(C)C)C(=O)N[C@H](C(=O)N[C@@H](CCCCN)C(=O)NCC(=O)N[C@@H](CCCNC(=N)N)C(=O)NCC(N)=O)C(C)C`, the Stability (Plasma) is reported as “Stable”, the IC50 [1] is reported as 1.9 nM and the EC50 [2] is reported as 0.008 nM.
`CC[C@H](C)[C@H](NC(=O)[C@@H]1CCCCNC(=O)CC[C@H](NC(=O)[C@H](CCC(N)=O)NC(=O)CNC(=O)[C@H](CCC(=O)O)NC(=O)[C@H](CC(C)C)NC(=O)[C@H](Cc2ccc(O)cc2)NC(=O)[C@H](CO)NC(=O)[C@H](CO)NC(=O)[C@@H](NC(=O)[C@H](CC(=O)O)NC(=O)[C@H](CO)NC(=O)[C@@H](NC(=O)[C@H](Cc2ccccc2)NC(=O)[C@@H](NC(=O)CNC(=O)[C@H](CCC(=O)O)NC(=O)CNC(=O)[C@@H](N)Cc2c[nH]cn2)[C@@H](C)O)[C@@H](C)O)C(C)C)C(=O)N[C@@H](C)C(=O)N[C@@H](CCCCN)C(=O)N[C@@H](CCC(=O)O)C(=O)N1)C(=O)N[C@@H](C)C(=O)N[C@@H](Cc1c[nH]c2ccccc12)C(=O)N[C@@H](CC(C)C)C(=O)N[C@H](C(=O)N[C@@H](CCCCN)C(=O)NCC(=O)N[C@@H](CCCNC(=N)N)C(=O)NCC(N)=O)C(C)C` gave an IC50 [1] of 290 nM and an EC50 [2] of 0.74 nM.
For `CC[C@H](C)[C@H](NC(=O)[C@H](Cc1ccccc1)NC(=O)[C@H](CCC(=O)O)NC(=O)[C@H](CCCCN)NC(=O)[C@H](C)NC(=O)[C@@H]1CCCCNC(=O)CC[C@H](NC(=O)[C@H](Cc2ccc(O)cc2)NC(=O)[C@H](CO)NC(=O)[C@H](CO)NC(=O)[C@@H](NC(=O)[C@H](CC(=O)O)NC(=O)[C@H](CO)NC(=O)[C@@H](NC(=O)[C@H](Cc2ccccc2)NC(=O)[C@@H](NC(=O)CNC(=O)[C@H](CCC(=O)O)NC(=O)CNC(=O)[C@@H](N)Cc2c[nH]cn2)[C@@H](C)O)[C@@H](C)O)C(C)C)C(=O)N[C@@H](CCC(=O)O)C(=O)NCC(=O)N[C@@H](CCC(N)=O)C(=O)N1)C(=O)N[C@@H](C)C(=O)N[C@@H](Cc1c[nH]c2ccccc12)C(=O)N[C@@H](CC(C)C)C(=O)N[C@H](C(=O)N[C@@H](CCCCN)C(=O)NCC(=O)N[C@@H](CCCNC(=N)N)C(=O)NCC(N)=O)C(C)C`, the IC50 [1] was 26 nM and the EC50 [2] was 0.45 nM.
`CC[C@H](C)[C@H](NC(=O)[C@H](Cc1ccccc1)NC(=O)[C@H](CCC(=O)O)NC(=O)[C@H](CCCCN)NC(=O)[C@@H]1CCCCNC(=O)CC[C@H](NC(=O)[C@H](CC(C)C)NC(=O)[C@H](Cc2ccc(O)cc2)NC(=O)[C@H](CO)NC(=O)[C@H](CO)NC(=O)[C@@H](NC(=O)[C@H](CC(=O)O)NC(=O)[C@H](CO)NC(=O)[C@@H](NC(=O)[C@H](Cc2ccccc2)NC(=O)[C@@H](NC(=O)CNC(=O)[C@H](CCC(=O)O)NC(=O)CNC(=O)[C@@H](N)Cc2c[nH]cn2)[C@@H](C)O)[C@@H](C)O)C(C)C)C(=O)NCC(=O)N[C@@H](CCC(N)=O)C(=O)N[C@@H](C)C(=O)N1)C(=O)N[C@@H](C)C(=O)N[C@@H](Cc1c[nH]c2ccccc12)C(=O)N[C@@H](CC(C)C)C(=O)N[C@H](C(=O)N[C@@H](CCCCN)C(=O)NCC(=O)N[C@@H](CCCNC(=N)N)C(=O)NCC(N)=O)C(C)C` was tested, and the IC50 [1] was 60 nM and the EC50 [2] was 0.14 nM.
